Patent publication US20250195521A1 (Revolution Medicines, Inc., priority 2020, published 2025)

Legend:
[1] = tested on: PAN02 tumors (SHP2 G503V); experiment: PAN02 syngeneic tumor model (Example 2); conditions: mouse
[2] = tested on: PAN02 cells (SHP2 G503V); experiment: pERK AlphaLISA in PAN02 cells; format: cell-based, mouse
Source text: (§1) In this example, two mouse tumor cell lines, KLN205 (lung squamous cell carcinoma) and PAN02 (pancreatic cancer), were characterized.
(§2) See FIGS. 5A through 5D, which are graphs depicting the pERK AlphaLISA® assay.

[3] = tested on: KLN205 cells (SHP2 G503V); experiment: pERK AlphaLISA in KLN205 cells; format: cell-based, mouse
Source text: as §1, §2

[4] = tested on: KLN205 cells (SHP2 G503V); experiment: CellTiter-Glo viability in KLN205 cells; format: cell-based, mouse
Source text: as §1, §2

[5] = tested on: PAN02 cells (SHP2 G503V); experiment: CellTiter-Glo viability in PAN02 cells; format: cell-based, mouse
Source text: as §1, §2

[6] = tested on: KLN205 tumors (SHP2 G503V); experiment: KLN205 syngeneic tumor model (Example 2); conditions: mouse

Question: What does the source list for `COc1cc2nc(C)nc(N[C@H](C)c3cc(N)cc(C(F)(F)F)c3)c2cc1O[C@H]1CCOC1` [BI-3406]?
Answer: inhibition of tumor growth in vivo [1]: near complete inhibition of tumor growth; inhibition of pERK [2]: potently inhibited; inhibition of pERK [3]: potently inhibited; inhibition of cell growth [4]: potently inhibited; inhibition of cell growth [5]: potently inhibited; inhibition of tumor growth in vivo [6]: near complete inhibition of tumor growth; also recorded: substantially higher levels of tumor growth inhibition

“Also recorded” adds a separate entry of the source.
